The values that follow come from patent US4446141A, “Hypotensive piperidine derivatives” (priority 1978, dated 1984).

Data set [1] concerns male dd-strain mice. The data set can be described thus: Experiment 2 Acute toxicity (LD50). Particulars: 7 days.
Data set [2] deals with male dd-strain mice. The experiment in a line: Experiment 1 Acute toxicity (number of deaths). The conditions noted are these: 3 mice, 7 days; for Number of Death I.P.: 200 mg/kg i.p.; for Number of Death P.O.: 1000 mg/kg p.o.
Data set [3] concerns blood pressure. The experiment in a line: Experiment 4 Hypotensive action, changes in blood pressure with time in anesthetized rats. The conditions noted are these: average of six rats, pressure before = 0.
Data set [4] relates to blood pressure. The experiment in a line: Experiment 6 Dosage-reaction curve, spontaneously hypertensive rats. It counts as in vivo. Particulars: SHR, average of five rats.
Data set [5] relates to blood pressure. The data set can be described thus: Experiment 6 Dosage-reaction curve, DOCA-NaCl loaded hypertensive rats. It counts as in vivo, DOCA-sodium chloride loaded hypertensive rats. Particulars: average of five rats.
The test system of data set [6] is blood pressure. The data set can be described thus: Experiment 5 Changes in blood pressure due to continuous administration, spontaneously hypertensive rats. The conditions noted are these: SHR, 30 mg/kg oral once a day, immediately before administration 197.
Data set [7] deals with blood pressure. The data set can be described thus: Experiment 5 Changes in blood pressure due to continuous administration, DOCA-NaCl loaded hypertensive rats. The conditions noted are these: 30 mg/kg oral once a day, immediately before administration 185.

Some compounds may have been tested in ways that are not shown here.

As for `CC(C(O)c1ccc(O)c(O)c1)N1CCC(n2c(=O)[nH]c3ccccc32)CC1` (centres unmarked), in the data set on male dd-strain mice [1], the “LD50 Intraperitoneal administration” value was 1500 mg/kg. Also, the “LD50 Oral administration” value with male dd-strain mice [1] is more than 6000 mg/kg. Further, the “LD50 Subcutaneous administration” value in the data set with male dd-strain mice [1] is recorded as more than 3000 mg/kg. For the same compound, the “Number of Death I.P.” value in the data set on male dd-strain mice [2] came to 0. In addition, in the data set with male dd-strain mice [2], the “Number of Death P.O.” value turned out to be 0. Moreover, the “change in blood pressure” value is on record as -58 mmHg with blood pressure [3] (10 min. after 30 mg/kg i.p.); -65 mmHg in the data set on blood pressure [3] (30 min. after 30 mg/kg i.p.); -65 mmHg in the data set with blood pressure [3] (1 hr. after 30 mg/kg i.p.); -57 mmHg in the data set with blood pressure [3] (2 hrs. after 30 mg/kg i.p.); -44 mmHg in the data set with blood pressure [3] (3 hrs. after 30 mg/kg i.p.); -34 mmHg in the data set with blood pressure [3] (4 hrs. after 30 mg/kg i.p.).
On to `O=C(CN1CCC(n2c(=O)[nH]c3ccccc32)CC1)c1ccc(O)c(O)c1`, for which, in the data set with male dd-strain mice [2], the “Number of Death I.P.” value was 0 and the “Number of Death P.O.” value was 0.
As for `O=c1[nH]c2ccccc2n1C1CCN(CC(O)c2ccc3ccccc3c2)CC1` (centres unmarked), in the data set with male dd-strain mice [2], the “Number of Death I.P.” value came to 0 and the “Number of Death P.O.” value came to 0.
Turning to `COc1cc(C(=O)CN2CCC(n3c(=O)[nH]c4ccccc43)CC2)cc(OC)c1OC`, in the data set on male dd-strain mice [2], the “Number of Death I.P.” value is given as 0 and the “Number of Death P.O.” value came out at 0.
On to `COc1cc(C(=O)C(C)N2CCC(n3c(=O)[nH]c4ccccc43)CC2)cc(OC)c1OC` (centres unmarked), for which, in the data set with male dd-strain mice [2], the “Number of Death I.P.” value is reported as 0 and the “Number of Death P.O.” value was 0.
For the compound `O=c1[nH]c2ccccc2n1C1CCN(CCc2ccc(O)c(O)c2)CC1`, in the data set on male dd-strain mice [2], the “Number of Death I.P.” value is 0 and the “Number of Death P.O.” value is 0.
In the case of `COc1ccc(C(=O)CN2CCC(n3c(=O)n(C(C)=O)c4ccccc43)CC2)cc1OC`, in the data set on male dd-strain mice [2], the “Number of Death I.P.” value was determined as 0 and the “Number of Death P.O.” value was found to be 0.
As to `CC(C(=O)c1ccc(O)c(O)c1)N1CCC(n2c(=O)[nH]c3ccccc32)CC1` (centres unmarked), in the data set with male dd-strain mice [2], the “Number of Death I.P.” value is listed as 0 and the “Number of Death P.O.” value is given as 0.
Take `COc1ccc(CCN2CCC(n3c(=O)[nH]c4ccccc43)CC2)cc1OC`: in the data set with male dd-strain mice [2], the “Number of Death I.P.” value is 0 and the “Number of Death P.O.” value is 0.
For the compound `COc1ccc(C(O)C(C)N2CCC(n3c(=O)n(C(C)=O)c4ccccc43)CC2)cc1OC` (centres unmarked), in the data set on male dd-strain mice [2], the “Number of Death I.P.” value came to 0 and the “Number of Death P.O.” value turned out to be 0.
For `O=c1[nH]c2ccccc2n1C1CCN(CC(O)c2ccc(O)c(O)c2)CC1` (centres unmarked), the “LD50 Intraperitoneal administration” value in the data set with male dd-strain mice [1] worked out at 800 mg/kg. Further, the “LD50 Oral administration” value with male dd-strain mice [1] turned out to be 3000 mg/kg. In addition, the “LD50 Subcutaneous administration” value in the data set on male dd-strain mice [1] was more than 1000 mg/kg. Besides, the “Number of Death I.P.” value in the data set on male dd-strain mice [2] is on record as 0. Also, the “Number of Death P.O.” value in the data set on male dd-strain mice [2] stood at 0. The “change in blood pressure” value in the data set on blood pressure [3] (10 min. after 30 mg/kg i.p.) is -67 mmHg; in the data set on blood pressure [3] (30 min. after 30 mg/kg i.p.) it was -75 mmHg; with blood pressure [3] (1 hr. after 30 mg/kg i.p.), -76 mmHg; in the data set with blood pressure [3] (2 hrs. after 30 mg/kg i.p.), -69 mmHg; with blood pressure [3] (3 hrs. after 30 mg/kg i.p.) it was -64 mmHg; with blood pressure [3] (4 hrs. after 30 mg/kg i.p.), -63 mmHg.
With `COc1ccc(C(O)CN2CCC(n3c(=O)[nH]c4ccccc43)CC2)cc1OC` (centres unmarked), in the data set with male dd-strain mice [2], the “Number of Death I.P.” value was found to be 0 and the “Number of Death P.O.” value is listed as 0.
As for `COc1cc(C(O)C(C)N2CCC(n3c(O)nc4ccccc43)CC2)cc(OC)c1OC` (centres unmarked), in the data set with male dd-strain mice [2], the “Number of Death I.P.” value came out at 0 and the “Number of Death P.O.” value was 0.
As to `CC(C(O)c1cccc(O)c1)N1CCC(n2c(=O)[nH]c3ccccc32)CC1` (centres unmarked), the “LD50 Intraperitoneal administration” value with male dd-strain mice [1] is reported as 500 mg/kg. The “LD50 Oral administration” value in the data set on male dd-strain mice [1] amounted to 2500 mg/kg. For the same compound, the “LD50 Subcutaneous administration” value in the data set with male dd-strain mice [1] is reported as more than 1000 mg/kg. Further, in the data set with male dd-strain mice [2], the “Number of Death I.P.” value turned out to be 0. For the same compound, the “Number of Death P.O.” value in the data set on male dd-strain mice [2] is recorded as 0. Further, the “change in blood pressure” value with blood pressure [3] (30 min. after 30 mg/kg i.p.) was -48 mmHg; with blood pressure [3] (1 hr. after 30 mg/kg i.p.), -47 mmHg; in the data set on blood pressure [3] (2 hrs. after 30 mg/kg i.p.), -39 mmHg; in the data set on blood pressure [3] (3 hrs. after 30 mg/kg i.p.), -42 mmHg; with blood pressure [3] (4 hrs. after 30 mg/kg i.p.), -48 mmHg.
`COc1cc(C(O)CN2CCC(n3c(=O)[nH]c4ccccc43)CC2)cc(OC)c1OC` (centres unmarked): in the data set on male dd-strain mice [2], the “Number of Death I.P.” value worked out at 0 and the “Number of Death P.O.” value came to 0.
Regarding `COc1ccc(C(=O)CN2CCC(n3c(=O)[nH]c4ccccc43)CC2)cc1OC`, the “maximum reduction in blood pressure” value in the data set with blood pressure [4] (0.5 mg/kg oral) is reported as -29 mmHg; in the data set on blood pressure [4] (1.0 mg/kg oral) it was -34 mmHg; in the data set on blood pressure [4] (10 mg/kg oral), -50 mmHg; in the data set with blood pressure [4] (50 mg/kg oral), -57 mmHg; in the data set on blood pressure [5] (0.1 mg/kg oral) it was -12 mmHg; with blood pressure [5] (1.0 mg/kg oral), -29 mmHg. Also, the “maximum reduction in blood pressure” value with blood pressure [5] (10 mg/kg oral) was -46 mmHg; in the data set on blood pressure [5] (50 mg/kg oral), -72 mmHg. For the same compound, the “LD50 Intraperitoneal administration” value in the data set with male dd-strain mice [1] is listed as 485 mg/kg. Further, the “LD50 Oral administration” value with male dd-strain mice [1] is on record as more than 6000 mg/kg. Further, in the data set on male dd-strain mice [1], the “LD50 Subcutaneous administration” value is reported as more than 3000 mg/kg. For the same compound, the “Number of Death I.P.” value in the data set with male dd-strain mice [2] was 0. Besides, the “Number of Death P.O.” value in the data set with male dd-strain mice [2] turned out to be 0. The “change in blood pressure” value in the data set on blood pressure [3] (10 min. after 30 mg/kg i.p.) is -23 mmHg; in the data set on blood pressure [3] (30 min. after 30 mg/kg i.p.), -44 mmHg; with blood pressure [3] (1 hr. after 30 mg/kg i.p.), -50 mmHg; in the data set with blood pressure [3] (2 hrs. after 30 mg/kg i.p.), -56 mmHg; in the data set with blood pressure [3] (3 hrs. after 30 mg/kg i.p.) it was -54 mmHg; in the data set on blood pressure [3] (4 hrs. after 30 mg/kg i.p.) it was -51 mmHg. The blood pressure is given as 158 mmHg with blood pressure [6] (1st day); 160 mmHg in the data set with blood pressure [6] (4th day); 140 mmHg with blood pressure [6] (9th day); 140 mmHg in the data set with blood pressure [7] (1st day); 140 mmHg in the data set on blood pressure [7] (4th day); 144 mmHg in the data set with blood pressure [7] (9th day).
Take `CC(C(=O)c1ccc2c(c1)OCO2)N1CCC(n2c(=O)[nH]c3ccccc32)CC1` (centres unmarked): in the data set with male dd-strain mice [2], the “Number of Death I.P.” value was determined as 0 and the “Number of Death P.O.” value came out at 0.
Turning to `COc1ccc(C(O)C(C)N2CCC(n3c(O)nc4ccccc43)CC2)cc1OC` (centres unmarked), in the data set on male dd-strain mice [2], the “Number of Death I.P.” value came out at 0 and the “Number of Death P.O.” value is 0.
Consider `O=C(CN1CCC(n2c(=O)[nH]c3ccccc32)CC1)c1ccc2c(c1)OCO2`, for which, in the data set on male dd-strain mice [2], the “Number of Death I.P.” value was found to be 0 and the “Number of Death P.O.” value stood at 0.
For the compound `COc1ccc(C(=O)C(C)N2CCC(n3c(=O)[nH]c4ccccc43)CC2)cc1OC` (centres unmarked), in the data set with male dd-strain mice [2], the “Number of Death I.P.” value is 0 and the “Number of Death P.O.” value stood at 0.
With `O=c1[nH]c2ccccc2n1C1CCN(CC(O)c2ccc3c(c2)OCO3)CC1` (centres unmarked), the “LD50 Intraperitoneal administration” value with male dd-strain mice [1] is 500 mg/kg. Moreover, the “LD50 Oral administration” value in the data set with male dd-strain mice [1] turned out to be 1500 mg/kg. The “LD50 Subcutaneous administration” value with male dd-strain mice [1] is listed as more than 1000 mg/kg. In addition, the “Number of Death I.P.” value in the data set on male dd-strain mice [2] was 0. In the data set with male dd-strain mice [2], the “Number of Death P.O.” value is reported as 0. The “change in blood pressure” value with blood pressure [3] (10 min. after 30 mg/kg i.p.) was -58 mmHg; in the data set on blood pressure [3] (30 min. after 30 mg/kg i.p.), -40 mmHg; in the data set with blood pressure [3] (1 hr. after 30 mg/kg i.p.), -42 mmHg; in the data set with blood pressure [3] (2 hrs. after 30 mg/kg i.p.), -36 mmHg; with blood pressure [3] (3 hrs. after 30 mg/kg i.p.) it was -26 mmHg; with blood pressure [3] (4 hrs. after 30 mg/kg i.p.), -18 mmHg.
For `CC(C(O)c1ccc2c(c1)OCO2)N1CCC(n2c(=O)[nH]c3ccccc32)CC1` (centres unmarked), in the data set with male dd-strain mice [2], the “Number of Death I.P.” value is on record as 0 and the “Number of Death P.O.” value amounted to 0.
As for `CCn1c(=O)n(C2CCN(CC(O)c3ccc4c(c3)OCO4)CC2)c2ccccc21` (centres unmarked), in the data set on male dd-strain mice [2], the “Number of Death I.P.” value is listed as 0 and the “Number of Death P.O.” value is given as 0.
